{"source": "PubChem BioAssay AID1053188", "about": "(Broad Institute, 2014)", "note": "This is a selection; strong and weak results do not stand in their true shares. The source made the active and inactive calls.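 The calls were made as follows: active = mean inhibition of at least 50% with a set share of replicates also reaching that level; inconclusive = no clear call, values can overlap the other calls; inactive = the rest.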"}
{"test": "inhibitors of CD40-induced NF-kB signaling, primary screen, BL2 cells, luciferase reporter, single point (AID 1053188);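 also: 0% = neutral control wells and 100% = IKK inhibitor VII at 50 µM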", "conditions": "CD40L-induced, 4 h, at 10 µM, active compounds read high"}
{"compound": "CN(C)C(=O)Oc1noc2ccccc12", "inhibition": "inactive: 13.7%"}
{"compound": "CC(NC(=O)COC(=O)C(O)(c1ccccc1)c1ccccc1)c1ccccc1", "note": "(centres undefined)", "inhibition": "inactive: 1.03%"}
{"compound": "CCNC(=S)/N=C(\\N)N[N+](=O)[O-]", "inhibition": "inactive: 1.88%"}
{"compound": "O=P1(N(CCCl)CCCl)OCCC2CCCCN21", "note": "(centres undefined)", "inhibition": "inactive: 2.77%"}
{"compound": "CC(=O)Nc1ccc(Oc2c([N+](=O)[O-])cc([N+](=O)[O-])cc2[N+](=O)[O-])cc1", "inhibition": "inactive: -1.59%"}
{"compound": "CC(C)(C)C(=O)NC(Sc1ccccc1)C(Cl)(Cl)Cl", "note": "(centres undefined)", "inhibition": "inactive: 5.21%"}
{"compound": "c1nnnn1CCn1cnnn1", "inhibition": "inactive: 17.4%"}
{"compound": "C/C(N)=N\\P(=O)(OCc1ccccc1)OCc1ccccc1", "inhibition": "inactive: 1.22%"}
{"compound": "COc1ccc(N)c([N+](=O)[O-])c1[N+](=O)[O-]", "inhibition": "inactive: 2.5%"}
{"compound": "c1cc(-c2nn[nH]n2)ccc1-c1nn[nH]n1", "inhibition": "inactive: 1.65%"}
{"compound": "O=[N+]([O-])c1cccc2n[nH]nc12", "inhibition": "inactive: 4.49%"}
{"compound": "O=[N+]([O-])c1cc([N+](=O)[O-])c(CCNc2ccccc2)c([N+](=O)[O-])c1", "inhibition": "inactive: -4.93%"}
{"compound": "CN1CCCC(OC(=O)C(c2ccccc2)c2ccccc2)C1", "note": "(centres undefined)", "inhibition": "inactive: 20.6%"}
{"compound": "CCCC1OP(N)(=O)OCC1CC", "note": "(centres undefined)", "inhibition": "inactive: 4.3%"}
{"compound": "COc1cc(C(=O)NCC2(N3CCOCC3)CCCCC2)ccc1OCC(C)C", "inhibition": "inactive: 3.69%"}
{"compound": "O=[N+]([O-])c1cc(Oc2ccc([N+](=O)[O-])cc2C(F)(F)F)cc([N+](=O)[O-])c1", "inhibition": "inactive: 14%"}
{"compound": "O=C(OC1CN2CCC1CC2)c1cccc([N+](=O)[O-])c1", "note": "(centres undefined)", "inhibition": "inactive: 4.74%"}
{"compound": "O=C(COc1ccccc1)OC1CN2CCC1CC2", "note": "(centres undefined)", "inhibition": "inactive: 3.11%"}
{"compound": "O=C(O)C(=O)c1ccc(N(CCCl)CCCl)cc1", "inhibition": "inactive: -12.1%"}
{"compound": "CC1CCNP(=O)(N(CCCl)CCCl)O1", "note": "(centres undefined)", "inhibition": "inactive: -0.686%"}
{"compound": "O=C(O)C(O)c1ccc(N(CCCl)CCCl)cc1", "note": "(centres undefined)", "inhibition": "inactive: 4.48%"}
{"compound": "COP(=O)(OC)N1CC1c1ccccc1", "note": "(centres undefined)", "inhibition": "inactive: 7.11%"}
{"compound": "COc1ccccc1CNC(=O)COC(=O)C(O)(c1ccccc1)c1ccccc1", "inhibition": "inactive: 4.48%"}
{"compound": "CN(C(=O)Cc1ccc(Cl)c(Cl)c1)[C@@H]1CCCC[C@H]1N1CCCC1", "inhibition": "inactive: 4.9%"}
{"compound": "CC(C)/C=N\\N=C(\\N)N[N+](=O)[O-]", "inhibition": "inactive: 7.83%"}
{"compound": "CCC1=CC2Cc3nc4ccc(Cl)cc4c(N)c3C(C1)C2", "note": "(centres undefined)", "inhibition": "active: 61.4%"}
{"compound": "CN(C(=O)Cc1ccc(Cl)c(Cl)c1)[C@H]1CC[C@@]2(CCCO2)C[C@@H]1N1CCCC1", "inhibition": "inactive: 9.1%"}
{"compound": "CN(C(=O)Cc1ccccc1)[C@@H]1CC[C@]2(CCCO2)C[C@H]1N1CCCC1", "inhibition": "inactive: 0.894%"}
{"compound": "N#CCCN(C(=O)COC(=O)C(O)(c1ccccc1)c1ccccc1)c1ccc(F)cc1", "inhibition": "inactive: 12%"}
